The record followed here is PubChem BioAssay AID1159550 (Chen Lab, School of Medicine, Emory University, 2015).

The chains behind the UniProt entries cited, without tags or fusion partners.
UniProt P52209, whole entry: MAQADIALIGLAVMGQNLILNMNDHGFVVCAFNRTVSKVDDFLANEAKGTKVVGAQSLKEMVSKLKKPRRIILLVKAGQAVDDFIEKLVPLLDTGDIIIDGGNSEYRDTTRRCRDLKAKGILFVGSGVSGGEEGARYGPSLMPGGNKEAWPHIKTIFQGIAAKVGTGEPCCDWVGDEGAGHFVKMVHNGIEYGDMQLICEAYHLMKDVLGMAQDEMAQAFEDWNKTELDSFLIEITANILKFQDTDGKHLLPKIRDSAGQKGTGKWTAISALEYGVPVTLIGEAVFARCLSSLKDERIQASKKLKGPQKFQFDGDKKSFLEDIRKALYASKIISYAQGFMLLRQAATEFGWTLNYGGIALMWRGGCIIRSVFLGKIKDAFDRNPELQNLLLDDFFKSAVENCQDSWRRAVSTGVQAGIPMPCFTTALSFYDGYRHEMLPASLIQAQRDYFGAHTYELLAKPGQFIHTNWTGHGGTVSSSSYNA

Broadly, the inhibition is the change of the read-out against control, counted positive when it falls.

Only a part is listed here, and it is no random draw. Calls of active or inactive are those of the source.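 Rule for the calls: active = at least 20% inhibition of 6-phosphogluconate dehydrogenase activity; inactive = the rest.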

This experiment addresses 6-phosphogluconate dehydrogenase, decarboxylating (Homo sapiens) (UniProt P52209). In words: inhibition of human phosphogluconate dehydrogenase – biochemical, recombinant enzyme, NADPH absorbance, primary screen (AID 1159550). The note with it: recombinant 6PGD, NADPH absorbance 341 nm; at 10 µM; active compounds read high.
Regarding `CN(CCCl)CCCl`, the inhibition was inactive: 10.3%.
